Experimental data as given in PubChem BioAssay AID1532 (PCMD, 2009).
Only a part is listed here, and it is no random draw. The source made the active and inactive calls. No stated cut-off is given here; in the data, active means inhibition above about 30% (passing the limit was not always enough); inconclusive means no clear call, values can overlap the other calls.

The compounds below were run on RmlC (dTDP-4-dehydrorhamnose 3,5-epimerase) and RmlD (dTDP-4-dehydrorhamnose reductase), coupled enzyme assay (assay: RmlC and RmlD coupled enzyme inhibitors, primary screen, biochemical, 384-well, compound mixtures, retest (AID 1532)). Settings: 384-well mixture HTS, at 5.5 µM, hits give high values.
With `Cc1ccc(OCC(=O)OC2CN3CCC2CC3)cc1` (stereo unspecified) the inhibition was inactive: -8.03%.
`O=P1(Nc2ccc(Br)cn2)COc2ccccc2OC1` was tested, and the inhibition was inactive: -10.5%.
In the case of `O=P1(Nc2ncccn2)COc2ccccc2OC1`, the inhibition is reported as inactive: -16.8%.
For `Cc1nn(-c2ccccc2)c2c1P(=O)(N1CCOCC1)N(C)C(c1ccccc1)=N2` (stereo unspecified), the inhibition was inactive: -11.1%.
With `CN(C(=O)Cc1ccc(Cl)c(Cl)c1)[C@@H]1CCCC[C@H]1N1CCCC1` the inhibition was inactive: -19.3%.
In the case of `CC1(CBr)Cn2c(nc3ccccc3c2=O)S1` (stereo unspecified), the inhibition is reported as inactive: -12%.
With `Clc1n[nH]nc1-c1nn[nH][15n]1` the inhibition was inactive: 2.54%.
`O=P1(Nc2ccccn2)COc2ccccc2OC1` was tested, and the inhibition was inactive: -12.3%.
For `CN(CCCl)Cc1cc(Cl)c(NC2=NCCN2)c(Cl)c1`, the inhibition was inactive: 5.41%.
With `Cc1cccc(OCC(=O)OC2CN3CCC2CC3)c1` (stereo unspecified) the inhibition was inactive: 2.55%.
In the case of `CN(C(=O)Cc1ccccc1)[C@@H]1CC[C@]2(CCCO2)C[C@H]1N1CCCC1`, the inhibition is reported as inactive: 4.12%.
With `CCOP1(=S)c2c(C)nn(CCC#N)c2N=C(c2ccc(F)cc2)N1C` (stereo unspecified) the inhibition was inactive: -13.9%.
In the case of `O=[N+]([O-])c1ccc2c(c1)nnn2O`, the inhibition is reported as inactive: -10.4%.
In the case of `CN(C(=O)Cc1ccc(Cl)c(Cl)c1)[C@H]1CC[C@@]2(CCCO2)C[C@@H]1N1CCCC1`, the inhibition is reported as inactive: 6.31%.
`NC(=O)Nc1ccc([As](=O)(O)O)cc1` was tested, and the inhibition was inactive: 8.6%.
With `CCOP1(=S)c2c(C)nn(CCC#N)c2N=C(c2ccccc2F)N1C` (stereo unspecified) the inhibition was inactive: -15.3%.
`O=P(Nc1nccs1)(c1ccccc1)c1nc2ccccc2s1` (stereo unspecified) was tested, and the inhibition was active: 35.6%.
In the case of `CCN(CC)C(=S)SC(NC=O)C(Cl)(Cl)Cl` (stereo unspecified), the inhibition is reported as inactive: 3.14%.
`ClCCSc1nnc(-c2cccnc2)o1` was tested, and the inhibition was inactive: 2.18%.
With `O=C(OC1CN2CCC1CC2)C12CC3CC(CC(C3)C1)C2` (stereo unspecified) the inhibition was inactive: -5.67%.
In the case of `CCC(C)N(CC(C)C)C(=S)SC(NC(C)=O)C(Cl)(Cl)Cl` (stereo unspecified), the inhibition is reported as inactive: -2.3%.
With `COP1(=S)c2c(C)nn(CCC#N)c2N=C(c2ccc(F)cc2)N1C` (stereo unspecified) the inhibition was inactive: -7.81%.
With `CC1CCN(C(=O)Oc2c(Cl)cc(Cl)c3cccnc23)CC1` the inhibition was inactive: 9.62%.
For `CCc1nc2c(n1)c1c(non1O)c1c2no[n+]1[O-]`, the inhibition was inactive: -0.33%.
For `CC(=O)N1C2C3N(C(C)=O)C1C1N(C(C)=O)C(C(N1C(C)=O)N3C(C)=O)N2C(C)=O`, the inhibition was inactive: 5.33%.
For `O=[N+]([O-])c1cccc2n[nH]nc12`, the inhibition was inactive: -9.86%.
With `Cc1c2non([O-])c-2c(C)[n+](=O)[n+]1[O-]` the inhibition was inactive: 2.35%.
`CC(C)CC(=O)NC(Sc1ccc(Cl)cc1)C(Cl)(Cl)Cl` (stereo unspecified) was tested, and the inhibition was inactive: 12.8%.
In the case of `CN1CCCC(OC(=O)C(c2ccccc2)c2ccccc2)C1` (stereo unspecified), the inhibition is reported as inactive: -10.8%.
In the case of `CCOP(=O)(Nc1ccccc1)OCC`, the inhibition is reported as inactive: 15.6%.
In the case of `CN(C(=O)Cc1ccc(Cl)c(Cl)c1)[C@H]1CCCC[C@@H]1N1CCCC1`, the inhibition is reported as inactive: 4.45%.
For `CCC(=O)N1C2C3N(C(=O)CC)C1C1N(C(=O)CC)C(C(N1C(=O)CC)N3C(=O)CC)N2C(=O)CC`, the inhibition was inactive: 3.62%.
For `COC(=O)c1cc2c(s1)N=C(c1ccccc1)N(C)P2(=O)N1CCOCC1` (stereo unspecified), the inhibition was inactive: 1.65%.
In the case of `CCOC(=O)NC(Sc1ccccc1)C(Cl)(Cl)Cl` (stereo unspecified), the inhibition is reported as inactive: -15.9%.
For `C[C@H]1OP(=O)(Oc2ccccc2)C[C@@H]2O[C@@H]21` (stereo partly specified), the inhibition was inactive: 17.4%.
In the case of `C[C@@H]1C=CCP(=O)(Oc2ccccc2)O1` (stereo partly specified), the inhibition is reported as inactive: 4.14%.
In the case of `O=P1(Nc2nc3ccc(Cl)cc3s2)COc2ccccc2O1` (stereo unspecified), the inhibition is reported as inactive: 8.91%.
In the case of `c1nnnn1CCn1cnnn1`, the inhibition is reported as inactive: -12%.
In the case of `O=P(Nc1nccs1)(c1ccccc1)c1ccccc1`, the inhibition is reported as inactive: 22.5%.
In the case of `O=C(OC1CN2CCC1CC2)c1cccc(Cl)c1` (stereo unspecified), the inhibition is reported as inactive: 3.81%.
`C[C@H]1OP(=O)(Oc2ccccc2)[C@H](O)[C@H](O)[C@H]1N=[N+]=[N-]` (stereo partly specified) was tested, and the inhibition was inactive: 19.7%.
